Results from US20260284219A1, “ANTIBODY CONJUGATE, AND USES THEREOF” (Acepodia Biotechnologies, Ltd., priority 2024, published 2026).

Legend:
[1] = test system: human HER2-positive breast cancer cell line SK-BR-3; experiment: Cytotoxicity assay (CellTiter-Glo 2.0), SK-BR-3; assay type: cell-based; conditions: up to 133.3 nM for 6 days, FIG. 11A, 11B
Protocol: (§1) Each condition was performed in triplicate.

[2] = test system: human triple-negative breast cancer MDA-MB-231 cells; experiment: Cytotoxicity assay (CellTiter-Glo 2.0), MDA-MB-231; assay type: cell-based; conditions: trastuzumab conjugates; up to 133.3 nM for 6 days; FIG. 12; listed as Trastuzumab AD2C
Protocol: as §1

## Trastuzumab-exatecan-vcMMAE (DAR10): Trastuzumab with 8 exatecan on cysteines and 2 MMAE on light-chain lysines (DAR10)
[1]
  cytotoxicity against SK-BR-3 cells: better cytotoxicity
[1]; listed as Trastuzumab AD2C
  cytotoxicity against SK-BR-3 cells: exhibits cytotoxicity
[2]
  cytotoxicity against MDA-MB-231 (HER2-negative): exhibits cytotoxicity
